The target of the experiment is T1, human APJ (hAPJ) (Homo sapiens, UniProt P35414).
T1 construct: expressed in transfected cells; cell membranes
T1 sequence (P35414 1-380): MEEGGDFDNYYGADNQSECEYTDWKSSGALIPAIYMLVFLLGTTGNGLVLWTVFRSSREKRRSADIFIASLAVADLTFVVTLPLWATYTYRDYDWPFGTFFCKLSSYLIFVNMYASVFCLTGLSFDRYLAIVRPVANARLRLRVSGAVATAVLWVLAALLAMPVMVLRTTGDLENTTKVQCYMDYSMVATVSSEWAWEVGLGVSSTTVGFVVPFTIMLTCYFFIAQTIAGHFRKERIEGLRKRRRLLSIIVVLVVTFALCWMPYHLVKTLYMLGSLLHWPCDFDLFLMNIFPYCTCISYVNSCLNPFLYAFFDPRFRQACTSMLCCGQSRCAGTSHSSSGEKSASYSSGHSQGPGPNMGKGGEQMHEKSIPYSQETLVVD
In words: Competitive radioligand binding ([125I][Nle75,Tyr77][Pyr1]-Ape13) on membranes of HEK293 cells stably expressing human APJ. The conditions noted are these: Table I; mean ± SEM. The procedure:
HEK293 cells stably expressing YFP-tagged human APJ were cultured in DMEM medium supplemented with 10% FBS, at 37° C. under a humid atmosphere maintaining 5% CO2. Antibiotic G418 (400 μg/mL) was added to maintain a selection pressure for APJ-expressing cells while penicillin/streptomycin (0.1%) were used to prevent bacterial contamination.
Binding experiments were performed on cell membranes of HEK293 stably expressing the YFP-tagged human APJ receptor. Cells were frozen at −80° C. for storage and quickly thawed right before the experiments (1 min at 37° C.). […] The precipitate (cell membranes) was suspended in binding buffer (50 mM Tris-HCl, 0.2% BSA, pH 7.4). Binding assays were run in 96-well plates. […] (820 Ci/mmol)^3 and test ligand with a range of concentrations from 10^−1 to 10^−11 M in a total volume of 200 μL for 1 h at room temperature.
The incubation mixtures were filtered through a glass fiber filter (Millipore, pre-absorbed of PEI 0.5% for 2 h at 4° C.) to remove unbound ligands, and the filter membranes were washed three times with 170 μL cold binding buffer (4° C.). The γ emission was measured using a 1470 Wizard γ-counter from PerkinElmer (Waltham, USA) (80% efficiency).

Turning to `CCCC[C@H](NC(=O)[C@@H]1CCCN1C(=O)CNC(=O)[C@H](CCCCN)NC(=O)[C@@H]1CC=CC[C@H](NC(=O)[C@H](CCCNC(=N)N)NC(=O)[C@@H]2CCC(=O)N2)C(=O)N[C@@H](CCCNC(=N)N)C(=O)N[C@@H](CC(C)C)C(=O)N[C@@H](CO)C(=O)N1)C(=O)N1CCC[C@H]1C(=O)N[C@@H](Cc1ccccc1)C(=O)O` [Compound 97, Pyr-R-c[X-R-L-S-X]c-K-G-P-Nle-P-F, reference compound], the affinity, expressed as Ki, was 3 ± 0.2 nM.

Broadly, the Ki is a dissociation constant, usually derived from enzyme kinetics or from competition with a known ligand.

The values above are taken from patent publication US20240343761A1, “APELINERGIC MACROCYCLES AND USES THEREOF” (priority 2021, published 2024).
